Values quoted from earlier work in patent US10332616B2, “Movable type method applied to protein-ligand binding” (University of Florida Research Foundation, Inc., priority 2013, dated 2019).

Details: experimental solvation free energy; test set with 372 neutral compounds

CCl [Compound 0160chl]
Exp. ΔGsolv: -0.56 kcal/mol
